The values that follow come from ChEMBL document CHEMBL1143879, “Identification of novel series of human CCR1 antagonists” (Bioorg Med Chem Lett, 2008).

A short description of the experiment: Selectivity for human CCR1 receptor over CCR4 receptor.

The structures appear in SMILES notation.

Regarding `O=S(=O)(NCCCN1CCC(O)(c2ccc(Cl)cc2)CC1)c1ccccc1-c1ccccc1`, the Selectivity ratio is over 100.
